The conditions of series [1]: for pKa / λ1, nm / λ2, nm: Table 3, PR derivatives; for λ1^pH 6/pH 9 Abs ratio: calculated as OD 430 nm pH 6.0/OD 430 nm pH 9.0.
A short description of series [2]: SPD derivative UV-Vis spectral and chemical properties (Table 1). Type of series: physicochemical. The note with it: pH sensitive wavelength of SPD^−2. An excerpt: The HA and A^− concentrations are related by the Henderson-Hasselbalch equation: pH=pKa+log[A^−]/[H—A] where Ka is the acid dissociation constant, pKa is −log Ka, and [A^−] and [HA] are the concentrations of dissociated and undissociated dye acid form, respectively.
Such compounds are commonly used as pH sensitive indicators for determination of pH of aqueous solutions. […] The structure of suitable SPDs and their conjugate bases are shown generically below, and their spectral and chemical properties are reported in Table 1.
Unmodified SPDs have been used for the preparation of pH sensitive indicators adsorbed on the surface of suitable polymeric materials, such as cellulose based materials. […] In general, substitution with electron acceptor substituents (e.g., Cl, Br in the C2/C5 positions) results in a pKa shift to a lower pH range relative to PR, and substitution with electron donor substituents (e.g., C1-C3 alkyl in the C2, C4 and C5 positions) results in a pKa shift to a higher pH range. […] Examples of such SPDs include bromocresol purple and bromothymol blue.
Measurement of absorbance at specific wavelengths allows for the determination of the concentrations of the acidic and basic forms of the dye. These wavelengths are typically selected based upon the absorbance maxima for each specific dye, although other wavelengths can be employed albeit with diminished sensitivity.

For “Monomethylol phenol red [Monomethylol phenol red (PR1)]”, in series [1], the pKa was 7.4; the “λ1, nm” value turned out to be 430 nm; the “λ2, nm” value turned out to be 565 nm; the “λ1^pH 6/pH 9 Abs ratio” value is given as 5.5. Moreover, the “extinction coefficient of λ1” value in series [1] (at the maximum SPD^−1 concentration) is ~10,000 mol^−1L^−1 cm. In series [1] (at the maximum SPD^−2 concentration), the “extinction coefficient of λ2” value is ~20,000 mol^−1L^−1 cm.
For `Cc1cc(C2(c3ccc(O)c(C)c3)OS(=O)(=O)c3ccccc32)ccc1O` [Cresol Red (CR), Cresol Red], the “λ2, nm (SPD^−2 form)” value in series [2] is on record as 565 nm.
On to “Dimethylol phenol red [Dimethylol phenol red (PR2)]”, for which, in series [1], the pKa was 8.6; the “λ1, nm” value turned out to be 429 nm; the “λ2, nm” value was found to be 565 nm; the “λ1^pH 6/pH 9 Abs ratio” value was 1.8.

Values taken from patent publication US12203909B2, “Compositions for conjugating a sulfonephthalein dye to a substrate” (priority 2018, dated 2025).
